ChEMBL document CHEMBL1127840, “Conformational analysis of 5-lipoxygenase inhibitors: role of the substituents in chiral recognition and on the active conformations of the (methoxyalkyl)thiazole and methoxytetrahydropyran series” (J Med Chem, 1994)

How the values were obtained:
[1] = target: T1, Polyunsaturated fatty acid 5-lipoxygenase (Homo sapiens, UniProt P09917); experiment: Inhibition of 5-lipoxygenase from human whole blood; assay type: tissue-based
T1 sequence (P09917 whole entry): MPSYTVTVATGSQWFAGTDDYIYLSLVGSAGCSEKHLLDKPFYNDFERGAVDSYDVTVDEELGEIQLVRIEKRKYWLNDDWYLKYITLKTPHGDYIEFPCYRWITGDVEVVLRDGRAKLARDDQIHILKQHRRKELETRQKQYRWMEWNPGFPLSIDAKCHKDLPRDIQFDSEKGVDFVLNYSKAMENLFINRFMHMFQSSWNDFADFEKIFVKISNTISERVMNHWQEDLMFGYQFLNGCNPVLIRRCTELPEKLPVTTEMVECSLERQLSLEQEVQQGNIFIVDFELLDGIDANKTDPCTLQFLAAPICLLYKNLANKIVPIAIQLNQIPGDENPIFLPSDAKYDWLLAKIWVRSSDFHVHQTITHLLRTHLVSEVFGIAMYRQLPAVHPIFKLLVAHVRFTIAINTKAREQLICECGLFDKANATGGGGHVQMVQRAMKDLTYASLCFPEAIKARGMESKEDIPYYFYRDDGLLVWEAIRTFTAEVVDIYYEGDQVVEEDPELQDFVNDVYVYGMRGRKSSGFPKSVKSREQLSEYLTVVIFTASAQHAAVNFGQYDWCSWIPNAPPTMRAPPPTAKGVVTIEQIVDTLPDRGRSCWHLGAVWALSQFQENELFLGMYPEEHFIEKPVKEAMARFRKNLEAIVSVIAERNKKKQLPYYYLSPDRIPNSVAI
How it was run: (§1)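 Eicosanoid generation measured to assess 5-LO inhibition. IC50 from iterative four-parameter curve fit. Data reported as mean ± SE with the number of determinations; where only two runs were made, both values are given.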

[2] = target: T1, Polyunsaturated fatty acid 5-lipoxygenase; experiment: Inhibitory concentration against 5-lipoxygenase from human whole blood; assay type: tissue-based; how it was run: as §1

IC50 [1] [µM] | IC50 [2] [µM] | Structure (SMILES)
2.3 |  | Cn1c(=O)ccc2cc(COc3cccc(C4(CO)CCOCC4)c3)ccc21
 | 0.07 | CC[C@](COC)(OC)c1cc(F)cc(OCc2ccc3c(ccc(=O)n3C)c2)c1
